A word on the IC50: it is the concentration needed to halve the response being measured. High values mean weaker potency, low ones greater potency.

By UniProt entry, the sequences of proteins in these tests, tags left out.
UniProt P25774, whole entry: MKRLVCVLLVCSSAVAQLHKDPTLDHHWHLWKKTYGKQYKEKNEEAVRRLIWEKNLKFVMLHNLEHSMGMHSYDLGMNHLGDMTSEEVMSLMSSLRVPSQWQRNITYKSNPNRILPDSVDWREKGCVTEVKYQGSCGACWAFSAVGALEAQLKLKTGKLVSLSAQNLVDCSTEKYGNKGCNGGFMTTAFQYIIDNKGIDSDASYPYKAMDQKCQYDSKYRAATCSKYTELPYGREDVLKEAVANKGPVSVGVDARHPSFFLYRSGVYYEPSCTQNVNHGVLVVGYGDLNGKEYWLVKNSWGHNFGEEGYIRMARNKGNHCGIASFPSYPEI

In the experiment the target is Cathepsin S (Homo sapiens, UniProt P25774).
`CC(C)(C)OC(=O)N1CCc2c(c(-c3ccc(C(F)(F)F)cc3)nn2CC(O)CN2CCC(N3C(=O)COc4ccccc43)CC2)C1` (stereo not given) came in with an IC50 of 0.826 µM.
`CC(C)(C)OC(=O)N1CCc2c(c(-c3ccc(C(F)(F)F)cc3)nn2CCCN2CCC(N3C(=O)COc4ccccc43)CC2)C1` came in with a half-inhibitory concentration (IC50) of 0.9 µM. The IC50 values of the last two compounds are within 1.5-fold of each other.
In the case of `O=C1COc2ccccc2N1C1CCN(CCCn2nc(-c3ccc(C(F)(F)F)cc3)c3c2CCNC3)CC1`, the IC50 was found to be 1.8 µM.
For `CS(=O)(=O)N1CCc2c(c(-c3ccc(Br)cc3)nn2CC(O)CN2CCC(N3C(=O)OCc4ccccc43)CC2)C1` (stereo not given) the value was 0.133 µM; for `O=C1COc2ccccc2N1C1CCN(CC(O)Cn2nc(-c3ccc(C(F)(F)F)cc3)c3c2CCNC3)CC1` (stereo not given), 1.92 µM.

Values taken from ChEMBL document CHEMBL1146958, “The SAR of 4-substituted (6,6-bicyclic) piperidine cathepsin S inhibitors” (Bioorg Med Chem Lett, 2006).
